ChEMBL document CHEMBL1629443 (J Med Chem, 2010)

Columns and labels:
[1] = biological target: T1, Protein deacetylase HDAC6 (Homo sapiens, UniProt Q9UBN7); assay: Inhibition of human recombinant HDAC6 expressed in HEK293 cells; format: cell-based
T1 sequence (Q9UBN7 whole entry): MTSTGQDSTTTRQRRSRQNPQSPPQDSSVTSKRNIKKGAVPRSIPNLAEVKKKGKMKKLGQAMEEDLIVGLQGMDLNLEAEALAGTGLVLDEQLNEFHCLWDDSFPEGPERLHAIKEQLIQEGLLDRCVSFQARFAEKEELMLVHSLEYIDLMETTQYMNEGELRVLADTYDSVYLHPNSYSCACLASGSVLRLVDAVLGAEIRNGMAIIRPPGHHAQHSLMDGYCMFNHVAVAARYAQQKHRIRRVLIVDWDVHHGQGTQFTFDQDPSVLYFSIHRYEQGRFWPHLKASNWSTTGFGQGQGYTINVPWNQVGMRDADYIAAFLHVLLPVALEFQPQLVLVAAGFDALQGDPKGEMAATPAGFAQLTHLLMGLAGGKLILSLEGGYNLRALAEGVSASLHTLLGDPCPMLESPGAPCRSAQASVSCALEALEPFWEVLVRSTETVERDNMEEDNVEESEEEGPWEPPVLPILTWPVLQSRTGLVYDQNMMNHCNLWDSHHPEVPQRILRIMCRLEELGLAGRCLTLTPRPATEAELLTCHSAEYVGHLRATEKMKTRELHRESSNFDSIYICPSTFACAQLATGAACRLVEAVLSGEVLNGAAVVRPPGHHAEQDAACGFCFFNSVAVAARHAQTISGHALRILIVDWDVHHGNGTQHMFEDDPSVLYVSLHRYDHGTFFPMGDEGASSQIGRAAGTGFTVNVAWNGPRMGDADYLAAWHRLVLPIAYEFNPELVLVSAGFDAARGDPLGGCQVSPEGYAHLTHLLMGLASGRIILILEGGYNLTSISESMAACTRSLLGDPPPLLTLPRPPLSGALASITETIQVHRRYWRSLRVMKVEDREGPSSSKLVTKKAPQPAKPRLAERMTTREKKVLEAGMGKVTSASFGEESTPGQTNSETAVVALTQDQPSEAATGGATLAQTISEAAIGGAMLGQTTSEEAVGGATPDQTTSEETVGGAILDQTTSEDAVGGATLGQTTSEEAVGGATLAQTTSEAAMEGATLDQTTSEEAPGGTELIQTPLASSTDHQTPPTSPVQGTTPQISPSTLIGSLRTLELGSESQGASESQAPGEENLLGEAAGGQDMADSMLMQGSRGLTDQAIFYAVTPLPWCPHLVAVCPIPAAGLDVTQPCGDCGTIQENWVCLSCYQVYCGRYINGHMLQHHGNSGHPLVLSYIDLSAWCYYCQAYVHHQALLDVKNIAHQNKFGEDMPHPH

HeLa = assay: Cytotoxicity against human HeLa cells overexpressing HDAC by resazurin dye reduction assay
Histone deacetylase = assay: Inhibition of HDAC in human HeLa cell nuclear extracts; format: cell-based
Histone deacetylase 1 = Histone deacetylase 1 (Homo sapiens, UniProt Q13547); assay: Inhibition of human recombinant HDAC1 expressed in HEK293 cells; format: cell-based

SMILES | pIC50 [1] | pIC50 (HeLa) | IC50 (Histone deacetylase) | pIC50 (Histone deacetylase 1)
O=C(NO)c1ccc(-c2ccc3ncnc(Nc4ccc(OCc5cccc(F)c5)c(Cl)c4)c3c2)o1 | 5.01 | 5.01 | 8.3 µM | 
CS(=O)(=O)CCNCc1ccc(-c2ccc3ncnc(Nc4ccc(OCc5cccc(F)c5)c(Cl)c4)c3c2)o1 [LAPATINIB] |  |  |  | < 5.00

pIC50: −log10 of the molar value.
